ChEMBL document CHEMBL5143511, “Positioning of an unprecedented 1,5-oxaza spiroquinone scaffold into SMYD2 inhibitors in epigenetic space” (Eur J Med Chem, 2022)

Sequences of proteins named here, by UniProt entry; tags and fusion partners are left off. A change or cut given only in a name is not applied to a line headed by its entry.
UniProt Q9NRG4: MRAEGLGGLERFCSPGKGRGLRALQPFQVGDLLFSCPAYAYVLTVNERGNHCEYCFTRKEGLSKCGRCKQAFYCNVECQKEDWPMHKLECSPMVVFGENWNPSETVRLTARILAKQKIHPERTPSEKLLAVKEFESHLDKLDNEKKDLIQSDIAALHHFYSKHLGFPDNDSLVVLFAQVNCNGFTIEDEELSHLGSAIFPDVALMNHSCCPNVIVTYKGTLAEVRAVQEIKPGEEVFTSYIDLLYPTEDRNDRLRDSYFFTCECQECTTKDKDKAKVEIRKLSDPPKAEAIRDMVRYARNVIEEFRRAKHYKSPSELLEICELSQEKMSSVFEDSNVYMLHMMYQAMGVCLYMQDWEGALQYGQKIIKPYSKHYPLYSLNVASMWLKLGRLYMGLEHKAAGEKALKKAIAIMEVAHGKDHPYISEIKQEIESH

Molecular target: N-lysine methyltransferase SMYD2 (Homo sapiens, UniProt Q9NRG4)
Assay: Inhibition of SMYD2 (unknown origin) using 3H-SAM as substrate incubated for 1 hr by filter binding method

- IC50: 27 nM
Structure (SMILES): CCN(C(=O)CO)C1CN(/C(=N\C#N)Nc2cccc(OC(F)F)c2)N=C1c1ccc(Cl)c(Cl)c1 (stereo unspecified)
